Source: patent US5711020A (priority 1996, dated 1998)

What was measured:
[1] = TNT reduction in anaerobic sediment samples, effect of initial concentration
Protocol: To monitor the disappearance of TNT and formation of its products in anaerobic sediment samples, TNT and its reduced products were extracted from water/sediment samples with acetonitrile (Burdick and Jackson, Musegon, Mich.) and analyzed by HPLC equipped with a UV detector as follows. The solvent was 30% water (pH 10) and 70% acetonitrile at a flow rate of 0.7 ml/min. Absorbance was detected at a wavelength of 238 nm. The dinitro and monoamino toluene isomers (Peak 2) eluted at same retention time, however, these isomers can be separated and identified by GC/MS. The two diamino, mononitrotoluene isomers (Peak 3) also co-eluted. Triaminotoluene (Peak 4) eluted with the solvent front. TNT (Peak 1) and standards for identification of its reduced products were obtained from the U.S. Army Research, Development, and Engineering Center, Picatinny Arsenal, N.J.
Sediments were collected from a stagnant, slow moving stream near Athens, Ga. These sediments were passed through a 1mm sieve. Aliquots of 5 ml of sediment slurries were transferred to a series of 15-ml screw cap test tubes and kept under anaerobic condition. The sediment/water ratio was 0.12, pH was 6.5 and Eh value was -368 my (vs. Ag/AgCl). A certain amount of concentrated TNT solutions were spiked into sediment samples to achieve three concentrations of TNT. At given time intervals, one tube of sample from the series was extracted by adding 1 ml of acetonitrile, vortex-mixing for 1 min and centrifuging. The supernatant was transfer centrifuged again and analyzed. […] The rate of change of TNT concentration is a constant when the concentration of TNT is 125 ppm or greater. Beyond this concentration, the reaction proceeds at a rate independent of both concentrations of TNT and sediment. Therefore, at high TNT concentration, the reaction rate is zero order. When the concentration of TNT was decreased to 2.5 ppm, the concentration of TNT decreased exponentially with time. Plotting ln(c/c0) against time by using least-square regression method, a straight line was obtained with the value of r^2 equal to 0.99. This reaction of TNT is a first order reaction and half-life is 90 min. With 0.25 ppm TNT, the reduction rate was fast. After a certain elapsed time, the concentration change slowed down.

[2] = cited from earlier work
[3] = cited from earlier work; remark: listed apart in the source
[4] = tested on: purified TNT-reducing agent; assay: Reducing agents kinetics with purified TNT-reducing agent; conditions: 1 μg of protein, 10^-6 M TNT
[5] = TNT reduction in aqueous 1% iron powder without reducing agent; conditions: 1.6 ppm TNT in distilled water, 1% (w/v) iron powder, anaerobic, no reducing agent
Protocol: The effects of the addition of iron to the system was analyzed. 1.6 ppm TNT in distilled water was combined with 1% (w/v) iron powder under anaerobic conditions. […] The TNT reduction rate was increased by shaking the reactor to enhance the mass transfer. It should be noted that TNT reduced products were not observed in this study, most likely because the reaction rate of TNT reduced products on the metal surface was extremely fast.

[6] = tested on: TNT-reducing protein extract; assay: TNT reduction kinetics with protein extract and aquifer material
Protocol: The reducing activity of a protein extract isolated from a high organic carbon sediment was analyzed after introduction into either an aqueous solution or a low organic carbon content system such as aquifer material. One ppm TNT solution was mixed with 0.5 g/ml aquifer sample as the control. One ppm TNT solution was mixed with 15 μg/ml of the TNT-reducing protein extract isolated from fraction 18 of FIG. 2 as described above and incubated for 24 hours. The purpose of incubation was to let the substrate, TNT, associate with the denatured subunits to recover the original active form of the enzyme. This procedure was followed by the "Microbial Metabolism of Aromatic Nitriles" study described by David B. Harper, Biochem. J. 167:685-692 (1977). After the incubation period, the incubated sample was spiked with concentrated TNT solution so that the final TNT concentration was 1 ppm.
To determine whether the protein extract would bind to aquifer material and retain activity in water, 15 μg/ml of protein extract was incubated with 0.5 g/ml aquifer sample for 24 hours before the TNT solution was added. The aquifer material had been collected from Columbus Air Force Base in Georgia. The organic carbon content in this aquifer was 0,027%.
Half-life of TNT in the combined aquifer material and protein extract system is smaller than that in protein extract system alone.

**Q.** Which reaction order ([1]; TNT 0.25 ppm) does the source give for `Cc1c([N+](=O)[O-])cc([N+](=O)[O-])cc1[N+](=O)[O-]` here?
**A.** second order

**Q.** And the reaction order ([1]; TNT 2.5 ppm)?
**A.** first order

**Q.** And the reaction order ([1]; TNT 125 ppm or greater)?
**A.** zero order

**Q.** What about the half-life ([1]; initial TNT 2.5 ppm, sediment/water ratio 0.12, pH 6.5, Eh -368 mv (vs. Ag/AgCl)) of the same compound?
**A.** 1.5 h

**Q.** And the “saturated concentration in water” value [2]?
**A.** about 125 ppm

**Q.** What about the “time stable on soil surfaces in the environment” value [3] of the same compound?
**A.** ≤ 40 years

**Q.** And the “time in which protein reduces the compound” value [4]?
**A.** approximately 15 minutes

**Q.** What about the t1/2 [5] of the same compound?
**A.** 27.4 h

**Q.** What about the t1/2 ([6]; 1 ppm TNT in 0.5 g/ml aquifer material alone (control)) of the same compound?
**A.** 70.6 h

**Q.** And the t1/2 ([6]; 1 ppm TNT in 0.5 g/ml aquifer material plus 15 μg/ml protein extract)?
**A.** 4.2 h

**Q.** What about the t1/2 ([6]; 1 ppm TNT plus 15 μg/ml protein extract) of the same compound?
**A.** 6.5 h

Some compounds may have been tested in ways that are not shown here.
